{"source": "patent US20120122956A1", "about": "“METHODS FOR INHIBITING AN[…] MULTI-ARM POLYMERIC CONJUGATES OF 7-ETHYL-10-HYDROXYCAMPTOTHECIN” (ENZON PHARMACEUTICALS, INC., priority 2009, published 2012)", "key": {"[1]": {"assay": "Pharmacokinetics in tumor free Balb/C mice", "format": "in vivo", "description": "Tumor free Balb/C mice were injected with a single injection of 20 mg/kg 4armPEG-Gly-(7-ethyl-10-hydroxycamptothecin) conjugates. At various time points mice were sacrificed and plasma was analyzed for intact conjugates and released 7-ethyl-10-hydroxycamptothecin by HPLC. Pharmacokinetic analysis was done using non-compartmental analysis (WinNonlin)."}, "Pharmacokinetics in rats": {"assay": "Pharmacokinetics in rats", "format": "in vivo", "description": "Additionally, pharmacokinetic profiles of 4arm PEG-Gly-(7-ethyl-10-hydroxycamptothecin) were investigated in rats. In rats, dose levels of 3, 10 and 30 mg/kg (7-ethyl-10-hydroxycamptothecin equivalent) were used. The pharmacokinetic profiles in rats were consistent with those of mice."}, "[2]": {"conditions": "buffer, varying pH (FIG. 7)"}, "[3]": {"conditions": "intact conjugate in plasma, single injection 20 mg/kg"}, "[4]": {"conditions": "parent compound (conjugate), rats"}}, "note": "Where two headings read alike, the source gives them in different places."}
{"substance": "^40k4arm-PEG-Gly(20)-(7-ethyl-10-hydroxycamptothecin) [Compound 9]", "values": [{"measurement": "Enterohepatic circulation", "setting": "[1]; conjugate, mice", "value": "observed"}, {"measurement": "terminal elimination half-life", "setting": "[1]; conjugate, mice, biphasic profile", "value": "18 to 22", "unit": "h"}, {"measurement": "AUC", "setting": "[1]; [3]", "value": "124,000 h*μg/mL"}, {"measurement": "CL", "setting": "[1]; [3]", "value": 5.3, "unit": "mL/h/kg"}, {"measurement": "Cmax", "setting": "[1]; [3]", "value": "20,500 μg/mL"}, {"measurement": "Terminal t1/2", "setting": "[1]; [3]", "value": 19.3, "unit": "h"}, {"measurement": "Vss", "setting": "[1]; [3]", "value": 0.131, "unit": "L/kg"}, {"measurement": "elimination half life", "setting": "Pharmacokinetics in rats; conjugate, rats, 3, 10 and 30 mg/kg, biphasic clearance", "value": "12 to 18", "unit": "h"}, {"measurement": "clearance", "setting": "Pharmacokinetics in rats; [4]", "value": 0.35, "unit": "mL/h/kg"}, {"measurement": "estimated volume of distribution at steady state (Vss)", "setting": "Pharmacokinetics in rats; [4]", "value": 0.00549, "unit": "L/kg"}, {"measurement": "MTD", "setting": "multiple dose (q2d×5)", "value": 10, "unit": "mg/kg"}, {"measurement": "Survival/Total", "setting": "multiple dose, 10 mg/kg every other day for 10 days, 14 days total", "value": "5/5"}, {"measurement": "Survival/Total", "setting": "multiple dose, 15 mg/kg every other day for 10 days, 14 days total", "value": "3/5"}, {"measurement": "Survival/Total", "setting": "multiple dose, 20 mg/kg every other day for 10 days, 14 days total", "value": "0/5"}, {"measurement": "MTD", "setting": "single dose", "value": 30, "unit": "mg/kg"}, {"measurement": "Survival/Total", "setting": "single dose, 25 mg/kg, monitored 14 days", "value": "5/5"}, {"measurement": "Survival/Total", "setting": "single dose, 30 mg/kg, monitored 14 days", "value": "5/5"}, {"measurement": "Survival/Total", "setting": "single dose, 35 mg/kg, monitored 14 days", "value": "4/5"}, {"measurement": "rate of 7-ethyl-10-hydroxycamptothecin release", "setting": "[2]", "value": "increases with increased pH"}]}
